Biological target: Apoptosis regulator Bcl-2 (Homo sapiens, UniProt P10415)
Test: Binding affinity to human recombinant Bcl-2 assessed as inhibition constant by fluorescence polarization assay

Amino acid sequences for entries named in this document (tags omitted).
UniProt P10415, whole entry: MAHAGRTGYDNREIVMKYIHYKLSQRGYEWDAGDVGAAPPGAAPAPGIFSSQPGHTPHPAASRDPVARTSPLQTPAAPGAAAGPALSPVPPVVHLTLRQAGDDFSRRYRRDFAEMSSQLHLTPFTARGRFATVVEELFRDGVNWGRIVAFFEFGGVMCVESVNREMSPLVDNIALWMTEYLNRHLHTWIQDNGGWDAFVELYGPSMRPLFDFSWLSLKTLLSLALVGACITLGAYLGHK

CC1(C)CCC(c2ccc(Cl)cc2)=C(CN2CCN(c3ccc(C(=O)NS(=O)(=O)c4ccc(N[C@H](CCN5CCOCC5)CSc5ccccc5)c(S(=O)(=O)C(F)(F)F)c4)cc3)CC2)C1 [NAVITOCLAX]
Ki: < 1 nM

— ChEMBL document CHEMBL5506012, “Targeting Myeloid Leukemia-1 in Cancer Therapy: Advances and Directions” (J Med Chem, 2024)
